{
  "source": "patent US10335367B2",
  "about": "“Use of selected anticholinergic zwitterions” (Bodor Laboratories, Inc., priority 2015, dated 2019)",
  "origin": "cited, not measured here",
  "tested_on": "rabbit eyes",
  "conditions": "cited from earlier work; for pupil dilation in the contralateral, untreated eye: administered in one eye",
  "note": "Where two headings read alike, the source gives them in different places.",
  "data": [
    {"smiles": "C[N+]1(CC(=O)[O-])CCC(OC(=O)[C@](O)(c2ccccc2)C2CCCC2)C1", "note": "(stereo partly shown)", "values": [
      {"measurement": "pupil dilation in the contralateral, untreated eye", "value": "no pupil dilation in the contralateral untreated eye"},
      {"measurement": "pupil dilation in the contralateral, untreated eye", "setting": "listed as compound (ii)", "value": "did not cause pupil dilation in the contralateral, untreated eye"},
      {"measurement": "irritation reactions (eye-closing, lacrimation, mucous discharge)", "setting": "rabbit, in vivo", "value": "not cause any observable irritation reactions"},
      {"measurement": "mydriatic activity in rabbit eyes", "setting": "topical administration", "value": "local mydriatic activity after topical administration but only with a short duration of action"}
    ]}
  ]
}
